Assay results: PubChem BioAssay (NCI)
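Five compound concentrations were applied to cells in 96-well plates for 48 hours; endpoints were derived by simple linear interpolation of the resulting dose-response curve. Here, GI50 denotes the concentration required for 50% inhibition of growth. TGI marks complete inhibition of growth.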

Tests used:
Test in all cases: growth of human tumour cells (NCI), 48 h
[1] = tested on: T-47D breast
[2] = tested on: IGROV1 ovarian
[3] = tested on: HS 578T breast
[4] = tested on: M14 melanoma
[5] = tested on: KM12 colon
[6] = tested on: NCI-H522 lung
[7] = tested on: NCI-H23 lung
[8] = tested on: OVCAR-8 ovarian
[9] = tested on: U251 CNS
[10] = tested on: SK-OV-3 ovarian
[11] = tested on: A498 renal
[12] = tested on: PC-3 prostate
[13] = tested on: UACC-257 melanoma
[14] = tested on: SK-MEL-2 melanoma
[15] = tested on: 786-0 renal
[16] = tested on: A549 NSCLC
[17] = tested on: UACC-62 melanoma
[18] = tested on: HT29 colon
[19] = tested on: RXF 393 renal
[20] = tested on: CAKI-1 renal
[21] = tested on: SW-620 colon
[22] = tested on: UO-31 renal
[23] = tested on: CCRF-CEM leukemia
[24] = tested on: SR leukemia
[25] = tested on: HCT-116 colon
[26] = tested on: MDA-MB-231 breast
[27] = tested on: NCI-H322M lung
[28] = tested on: K-562 leukemia
[29] = tested on: SF-539 CNS
[30] = tested on: ACHN renal
[31] = tested on: NCI-H226 lung
[32] = tested on: OVCAR-5 ovarian
[33] = tested on: HCC-2998 colon
[34] = tested on: COLO 205 colon
[35] = tested on: HOP-92 NSCLC
[36] = tested on: RPMI-8226 leukemia
[37] = tested on: MALME-3M melanoma
[38] = tested on: SK-MEL-5 melanoma
[39] = tested on: SN12C renal
[40] = tested on: SK-MEL-28 melanoma
[41] = tested on: EKVX NSCLC
[42] = tested on: LOX IMVI melanoma
[43] = tested on: MDA-MB-435
[44] = tested on: HOP-62 NSCLC
[45] = tested on: SNB-19 CNS
[46] = tested on: TK-10 renal
[47] = tested on: MCF7 breast
[48] = tested on: BT-549 breast
[49] = tested on: DU-145 prostate
[50] = tested on: SF-268 CNS
[51] = tested on: HL-60(TB) leukemia
[52] = tested on: NCI/ADR-RES ovarian
[53] = tested on: OVCAR-3 ovarian
[54] = tested on: HCT-15 colon
[55] = tested on: NCI-H460 lung

SMILES: O=C(Nc1cccc2ccccc12)N(CCBr)CCBr
- GI50 [1]: 7.7 µM
- TGI [1]: 22.5 µM
- GI50 [2]: 21.1 µM
- TGI [2]: 59.2 µM
- GI50 [3]: 18.5 µM
- TGI [3]: 36.8 µM
- GI50 [4]: 51.1 µM
- TGI [4]: > 100 µM
- GI50 [5]: 19.8 µM
- TGI [5]: 43.8 µM
- GI50 [6]: 18 µM
- TGI [6]: 39.9 µM
- GI50 [7]: 28.9 µM
- TGI [7]: 91.6 µM
- GI50 [8]: 26.9 µM
- TGI [8]: > 100 µM
- GI50 [9]: 13 µM
- TGI [9]: 41.7 µM
- GI50 [10]: 42.8 µM
- TGI [10]: 68.9 µM
- GI50 [11]: 18.8 µM
- TGI [11]: 48.8 µM
- GI50 [12]: 12.4 µM
- TGI [12]: 33.2 µM
- GI50 [13]: 17.5 µM
- TGI [13]: 49 µM
- GI50 [14]: 28.6 µM
- TGI [14]: 62.7 µM
- GI50 [15]: 26.6 µM
- TGI [15]: 77.7 µM
- GI50 [16]: 40.1 µM
- TGI [16]: > 100 µM
- GI50 [17]: 13.4 µM
- TGI [17]: 29.2 µM
- GI50 [18]: 18.3 µM
- TGI [18]: 45 µM
- GI50 [19]: 16.4 µM
- TGI [19]: 35.1 µM
- GI50 [20]: 25.7 µM
- TGI [20]: 61.9 µM
- GI50 [21]: 27.6 µM
- TGI [21]: > 100 µM
- GI50 [22]: 18.6 µM
- TGI [22]: 43.6 µM
- GI50 [23]: 30.9 µM
- TGI [23]: > 100 µM
- GI50 [24]: 11.7 µM
- TGI [24]: 67.9 µM
- GI50 [25]: 43.9 µM
- TGI [25]: > 100 µM
- GI50 [26]: 19.9 µM
- TGI [26]: 50 µM
- GI50 [27]: 35 µM
- TGI [27]: > 100 µM
- GI50 [28]: 13.4 µM
- TGI [28]: 41.6 µM
- GI50 [29]: 15.1 µM
- TGI [29]: 37.8 µM
- GI50 [30]: 2860 nM
- TGI [30]: 19.2 µM
- GI50 [31]: 11.7 µM
- TGI [31]: 31.8 µM
- GI50 [32]: 30 µM
- TGI [32]: > 100 µM
- GI50 [33]: 25.1 µM
- TGI [33]: 54 µM
- GI50 [34]: 17.8 µM
- TGI [34]: 43.5 µM
- GI50 [35]: 12 µM
- TGI [35]: 32.3 µM
- GI50 [36]: 20.9 µM
- TGI [36]: > 100 µM
- GI50 [37]: 16.9 µM
- TGI [37]: 36 µM
- GI50 [38]: 11.2 µM
- TGI [38]: 29.5 µM
- GI50 [39]: 16.4 µM
- TGI [39]: 34.5 µM
- GI50 [40]: 21.2 µM
- TGI [40]: 41.6 µM
- GI50 [41]: 27 µM
- TGI [41]: > 100 µM
- GI50 [42]: 17.8 µM
- TGI [42]: 47.3 µM
- GI50 [43]: 27.2 µM
- TGI [43]: 59.5 µM
- GI50 [44]: 17.2 µM
- TGI [44]: > 100 µM
- GI50 [45]: 15.8 µM
- TGI [45]: 39.5 µM
- GI50 [46]: 27.3 µM
- TGI [46]: 70.2 µM
- GI50 [47]: 13.9 µM
- TGI [47]: 53.9 µM
- GI50 [48]: 19.4 µM
- TGI [48]: 41.2 µM
- GI50 [49]: 25 µM
- TGI [49]: > 100 µM
- GI50 [50]: 17.8 µM
- TGI [50]: 42 µM
- GI50 [51]: 17.7 µM
- TGI [51]: 43 µM
- GI50 [52]: 35.2 µM
- TGI [52]: > 100 µM
- GI50 [53]: 33.6 µM
- TGI [53]: > 100 µM
- GI50 [54]: 25.7 µM
- TGI [54]: 71.7 µM
- GI50 [55]: 19 µM
- TGI [55]: 53.4 µM
